The target of this test is MNK1 (Homo sapiens (Human), UniProt Q9BUB5). The test can be described thus: MNK1 in vitro kinase assay (Assay 3), Z'-LYTE. The following applies: read-out: MNK1 % INH. Type of test: biochemical. The source says: C. MNK1 In vitro Kinase Assay (Assay 3)
MNK1 Data can be obtained from the MNK1 Z′-LYTE® assay. The MNK1 Z′-LYTE® screening protocol and assay conditions are also described on www.invitrogen.com.
The assay is described as follows:
The Z′-LYTE® biochemical assay employs a fluorescence-based, coupled-enzyme format and is based on the differential sensitivity of phosphorylated and non-phosphorylated peptides to proteolytic cleavage. The peptide substrate is labeled with two fluorophores—one at each end—that make up a FRET pair.
In the primary reaction, the kinase transfers the gamma-phosphate of ATP to a single tyrosine, serine or threonine residue in a synthetic FRET-peptide. In the secondary reaction, a site-specific protease recognizes and cleaves non-phosphorylated FRET-peptides. Phosphorylation of FRET-peptides suppresses cleavage by the Development Reagent. […] A ratiometric method, which calculates the ratio (the Emission Ratio) of donor emission to acceptor emission after excitation of the donor fluorophore at 400 nm, is used to quantitate reaction progress, as shown in the equation below.
ASSAY SETUP: The inhibition of kinase activity of MNK1a was assessed using pre-activated GST-MNK1a. […]
9. Read on fluorescence plate reader and analyze the data […]
Correction for Background Fluorescence: FlSample-FlTCFl Ctl […]
Fl=Fluorescence Intensity […]

Protein sequences, listed by entry. Tags and fused reporters are not part of them. Chains listed by the source or under a name are the forms on record and can include a tag or linker.
UniProt Q9BUB5, other isoform, or with tags, fused parts or gaps: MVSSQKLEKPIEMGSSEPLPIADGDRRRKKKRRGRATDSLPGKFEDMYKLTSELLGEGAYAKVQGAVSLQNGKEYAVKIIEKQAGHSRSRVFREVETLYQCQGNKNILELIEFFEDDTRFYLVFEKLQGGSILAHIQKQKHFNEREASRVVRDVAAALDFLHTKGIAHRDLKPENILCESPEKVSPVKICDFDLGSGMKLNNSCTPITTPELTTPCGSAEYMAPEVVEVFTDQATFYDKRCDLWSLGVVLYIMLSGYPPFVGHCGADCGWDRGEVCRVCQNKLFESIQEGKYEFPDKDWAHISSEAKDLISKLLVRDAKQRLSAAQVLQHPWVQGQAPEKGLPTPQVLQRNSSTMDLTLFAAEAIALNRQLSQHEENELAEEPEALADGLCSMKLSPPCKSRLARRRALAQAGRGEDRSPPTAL

The values that follow come from patent publication US9139577B2, “Sulfoximine substituted quinazolines for pharmaceutical compositions” (Boehringer Ingelheim International GmbH, priority 2013, dated 2015).

In the case of `Cc1cc(N=S(C)(C)=O)cc2ncnc(Nc3ccc(F)cc3O[C@H](C)C(=O)N3CCOCC3)c12` [Example 4.032], the inhibition at 1 µM was 94%.
